{
  "source": "ChEMBL document CHEMBL6134779",
  "about": "“Design of Proteolytic-Resistant Antifungal Peptides by Utilizing Minimum d-Amino Acid Ratios” (J Med Chem, 2024)",
  "experiment": "Hemolytic activity in human red blood cells assessed as hemolysis incubated for 1 hr",
  "format": "toxicity, cell-based, Erythrocyte",
  "data": [
    {"smiles": "CC[C@H](C)[C@H](NC(=O)CN)C(=O)NCC(=O)N[C@@H](C)C(=O)N[C@H](C(=O)N[C@@H](CC(C)C)C(=O)N[C@@H](CCCCN)C(=O)N[C@H](C(=O)N[C@@H](CC(C)C)C(=O)N[C@H](C(=O)N[C@H](C(=O)NCC(=O)N[C@@H](CC(C)C)C(=O)N1CCC[C@H]1C(=O)N[C@@H](C)C(=O)N[C@@H](CC(C)C)C(=O)N[C@H](C(=O)N[C@@H](CO)C(=O)N[C@@H](Cc1c[nH]c2ccccc12)C(=O)N[C@H](C(=O)N[C@@H](CCCCN)C(=O)N[C@@H](CCCNC(=N)N)C(=O)N[C@@H](CCCCN)C(=O)N[C@@H](CCCNC(=N)N)C(=O)N[C@@H](CCC(N)=O)C(=O)N[C@@H](CCC(N)=O)C(N)=O)[C@@H](C)CC)[C@@H](C)CC)[C@@H](C)O)[C@@H](C)O)C(C)C)C(C)C", "note": "[MELITTIN]", "values": [
      {"measurement": "HC50 at 1 h", "result": 4, "unit": "µM"}
    ]}
  ]
}
